Molecules are shown by their SMILES.

Amino acid sequences for entries named in this document (tags omitted).
UniProt P25025, whole entry: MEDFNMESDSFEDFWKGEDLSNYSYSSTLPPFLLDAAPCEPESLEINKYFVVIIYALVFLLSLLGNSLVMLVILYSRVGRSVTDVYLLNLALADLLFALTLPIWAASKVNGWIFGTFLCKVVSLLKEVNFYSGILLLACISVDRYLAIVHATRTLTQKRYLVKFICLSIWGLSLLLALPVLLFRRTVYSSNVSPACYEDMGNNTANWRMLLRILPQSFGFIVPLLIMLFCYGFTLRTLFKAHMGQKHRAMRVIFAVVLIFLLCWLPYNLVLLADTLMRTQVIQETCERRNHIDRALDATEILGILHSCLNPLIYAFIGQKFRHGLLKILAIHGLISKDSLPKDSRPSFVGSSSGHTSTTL

In assay [1] the target is T1, C-X-C chemokine receptor type 2 (Homo sapiens, UniProt P25025). Nature of the assay: Antagonist activity at human CXCR2 expressed in HEK293 cells assessed as inhibition of CXCL8-induced intracellular Ca2+ release by fluorescence based calcium flux assay. The format is functional, cell-based. Summed up: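 HEK293 cells stably transfected with human CXCR2 (pooled G418-selected line) loaded with FLIPR Calcium 3 dye in HBSS without Ca/Mg plus 10 mM HEPES, with compound or DMSO (1% final), 30 min at 37 °C. Cells resuspended in HBSS with Ca/Mg, compound re-added, 10^5 cells/well.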

Assay [2] addresses T1, C-X-C chemokine receptor type 2. Nature of the assay: Antagonist activity at CXCR2 in human PMNs assessed as inhibition of CXCL1-induced intracellular Ca2+ release by fluorescence based calcium flux assay. The format is functional, cell-based. A digest of the protocol: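 Human PMNs isolated from healthy donor blood (dextran sedimentation, Histopaque 1077, hypotonic RBC lysis). Cells loaded with FLIPR Calcium 3 dye in Ca/Mg-free HBSS with 10 mM HEPES plus compound, 30 min at 37 °C, then resuspended in HBSS with Ca/Mg and compound again. Stimulus was 25 nM CXCL1 (final). Fluorescence (ex 485, em 525 nm) read every 5 s at room temperature. Max–min signal normalised to DMSO control.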
Background: Calcium assays in cells follow changes in intracellular calcium, usually with a dye or a luminescent sensor.

As to `O=C(Nc1ccc([N+](=O)[O-])cc1O)Nc1ccccc1Br`, the IC50 (in general, the midpoint of a concentration-inhibition curve) in assay [1] turned out to be 0.04 µM; in assay [2], 0.03 µM.

Values taken from ChEMBL document CHEMBL3352272, “Discovery of 2-[5-(4-Fluorophenylcarbamoyl)pyridin-2-ylsulfanylmethyl]phenylboronic Acid (SX-517): Noncompetitive Boronic Acid Antagonist of CXCR1 and CXCR2” (J Med Chem, 2014).
